The values that follow come from PMC12005989, “Purification, identification, and in silico screening of a multifunctional octapeptide from semen armeniacae glutelin-2 hydrolysates: restraining mechanisms to Keap1 and ACE, stability, and ferrous-transport efficiency” (Frontiers in Nutrition, 2025).

A short description of this data set: Ferrous solubility of ferrous chelate during simulated gastrointestinal digestion. It counts as in vitro ADME. The method, then:
Next, the intestinal digestive fluid was added, and the digestion was continued at pH 6.8 for 2 h in the EDZF-C002 thermostatic vibrator ([…], 175 rpm).

With “PVDFAGFY-ferrous chelate: ferrous chelate of PVDFAGFY prepared with ferrous chloride (ferrous chelate)”, the “Ferrous solubility during gastric digestion (0–90 min)” value (simulated gastric fluid with pepsin, pH 1.9, 37°C, 175 rpm, soluble ferrous by o-phenanthroline every 30 min) is “relatively stable”. Also, under “simulated intestinal digestion, pH 6.8, comparators 0.1 mg/mL, p < 0.05”, the “Ferrous solubility compared with ferrous lactate and ferrous chloride, 91 to 180 min” value is “much higher than those of ferrous lactate and ferrous chloride”. Besides, under “simulated intestinal fluid, pH 6.8, 37°C, soluble ferrous by o-phenanthroline every 30 min”, the “Ferrous solubility during intestinal digestion (91–180 min)” value is recorded as “apparently decreased”.
